Laboratory results reported in patent US20250152570A1 (AIR FORCE MEDICAL UNIVERSITY, priority 2022, published 2025).

Experiments:
Type in all cases: cell-based
Settings in all cases: at the same drug concentration
TE10 cells [1] = experiment: CCK8 cell proliferation, TE10
Protocol: (§1) At the same time, BI-D1870 was used as a positive control, and no drug was used as a blank control (Black).
(§2) The CCK-8 cell proliferation kit of Shanghai Taoshu Biotechnology Co., Ltd. was used. • (1) Cell suspension was inoculated in a 96-well plate, 100 μL per well, 2,000 cells per well. • (2) Culture or give drugs according to experimental needs, and treat for an appropriate time. • (3) Add 10 μL of CCK-8 solution to each well and incubate at 37° C. • (4) The absorbance value was determined by selecting a wavelength of 450 nm on the microplate reader. The growth curve was drawn based on time and absorbance value.

ECA109 cells [2] = experiment: CCK8 cell proliferation, ECA109
Protocol: as §1, §2

TE10 cells [3] = experiment: Transwell migration assay, TE10
Protocol: as §1
(§3) • (1) Digest cells. Wash once with PBS, resuspend in serum-free medium, and adjust the cell density to 5×10^5/ml. • (2) Add 500 μl of culture medium containing 10% fetal bovine serum to the lower chamber of the 24-well plate. Take 200 μl of cell suspension and add it to the chamber. Note that there are no bubbles between the chamber and the lower culture medium. • (3) Culture routinely for 16-24 h. • (4) Aspirate the culture medium in the chamber, fix the cells in the chamber with anhydrous methanol for 15 min, and rinse with PBS. • (5) Color: Add Gumsa staining solution to the 24-well plate, immerse the membrane in the staining solution for 20 min, and wash with PBS. • (6) Carefully wipe off the cells on the inner layer of the membrane with a cotton swab and air-dry the membrane. • (7) Take pictures under a microscope, count 5 high-power fields, and take the average value.

ECA109 cells [4] = experiment: Transwell migration assay, ECA109
Protocol: as §1, §3

Cc1cc(F)c(C(=O)Nc2cccc(-c3nncn3C(C)C)n2)cc1-n1cnc(C2CC2)c1 [Selonsertib, 5-(4-cyclopropyl-1H-imidazol-1-yl)-2-fluoro-N-(6-(4-isopropyl-4H-1,2,4-triazol-3-yl)pyridine-2-yl)-4-methylbenzamide]
stronger inhibitory effect: inhibitory effect on proliferation of TE10 versus BI-D1870 (TE10 cells [1]) | inhibitory effect on proliferation of ECA109 versus BI-D1870 (ECA109 cells [2]) | inhibitory effect on migration of TE10 versus BI-D1870 (TE10 cells [3]) | inhibitory effect on migration of ECA109 versus BI-D1870 (ECA109 cells [4])
